From patent publication US20060052435A1, “Selective dopamin d3 receptor agonists for the treatment of sexual dysfunction” (priority 2001, published 2006)

What was measured:
anaesthetised dog [1] = assay: haemodynamics in the anaesthetised dog; assay type: in vivo
anaesthetised dog [2] = assay: emesis in the chloralose anaesthetised dog; details: s.c., escalating doses 3-3000 μg kg^−1

In the case of `CCCNC1CCc2nc(N)sc2C1.Cl.Cl` (stereo not drawn) [Pramipexole, 2-amino-4,5,6,7-tetrahydro-6-propylamino-benzthiazole-dihydrochloride], the “cardiac output at the highest dose levels” value (anaesthetised dog [1]; dog, in vivo) is reported as “approximately doubled”, the “Geometric mean ED30 (fall in TPR)” value (anaesthetised dog [1]; male, beagle, dog, in vivo, 30 min) is reported as 8.9 μg/kg s.c and the “effect on cardiac output and heart rate” value (anaesthetised dog [1]; s.c.) is reported as “increases in cardiac output and heart rate”. For the same molecule, the “effect on mean blood pressure” value (anaesthetised dog [1]; s.c., doses up to 3000 μg/kg) was “clear effect on mean blood pressure”, the “effect on total vascular resistance (TVR; TPR)” value (anaesthetised dog [1]; s.c., doses up to 3000 μg/kg) was “reduction in total vascular resistance” and the “dose at which emesis was observed” value (anaesthetised dog [2]) was 0.03 mg/kg.
